Biological target: TLN1 PTB (Homo sapiens, UniProt Q9Y490)
Format: binding

Protein sequences, listed by entry. Tags and fused reporters are not part of them. Residues count along the entry.
UniProt Q9Y490, 309-401: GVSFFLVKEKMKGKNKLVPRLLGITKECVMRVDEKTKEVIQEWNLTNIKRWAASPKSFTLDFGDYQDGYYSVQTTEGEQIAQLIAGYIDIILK

Substance	DMS-derived PSSM value of the single-substitution variant	NGS_counts log2_total	DMS-derived PSSM value, averaged over the two overlapping peptides
FPTDERSWVYSPLHYS V9R (FPTDERSWRYSPLHYS)	0.02163		
FPTDERSWVYSPLHYS V9S (FPTDERSWSYSPLHYS)	0.02044		
FPTDERSWVYSPLHYS V9T (FPTDERSWTYSPLHYS)	0.009005		
FPTDERSWVYSPLHYS V9V	0.007982		
FPTDERSWVYSPLHYS V9W (FPTDERSWWYSPLHYS)	0.05341		
FPTDERSWVYSPLHYS V9Y (FPTDERSWYYSPLHYS)	0.01766		
FPTDERSWVYSPLHYS W8A (FPTDERSAVYSPLHYS)	0.0437		
FPTDERSWVYSPLHYS W8D (FPTDERSDVYSPLHYS)	0		
FPTDERSWVYSPLHYS W8E (FPTDERSEVYSPLHYS)	0		
FPTDERSWVYSPLHYS W8F (FPTDERSFVYSPLHYS)	0.2983		
FPTDERSWVYSPLHYS W8G (FPTDERSGVYSPLHYS)	0		
FPTDERSWVYSPLHYS W8H (FPTDERSHVYSPLHYS)	0		
FPTDERSWVYSPLHYS W8I (FPTDERSIVYSPLHYS)	0		
FPTDERSWVYSPLHYS W8K (FPTDERSKVYSPLHYS)	0		
FPTDERSWVYSPLHYS W8L (FPTDERSLVYSPLHYS)	0		
FPTDERSWVYSPLHYS W8M (FPTDERSMVYSPLHYS)	0		
FPTDERSWVYSPLHYS W8N (FPTDERSNVYSPLHYS)	0		
FPTDERSWVYSPLHYS W8P (FPTDERSPVYSPLHYS)	0.0437		
FPTDERSWVYSPLHYS W8Q (FPTDERSQVYSPLHYS)	0.0707		
FPTDERSWVYSPLHYS W8R (FPTDERSRVYSPLHYS)	0		
FPTDERSWVYSPLHYS W8S (FPTDERSSVYSPLHYS)	0		
FPTDERSWVYSPLHYS W8T (FPTDERSTVYSPLHYS)	0		
FPTDERSWVYSPLHYS W8V (FPTDERSVVYSPLHYS)	0		

Substance	DMS-derived PSSM value of the single-substitution variant	NGS_counts log2_total	DMS-derived PSSM value, averaged over the two overlapping peptides
FPTDERSWVYSPLHYS W8W	0.5435		
FPTDERSWVYSPLHYS W8Y (FPTDERSYVYSPLHYS)	0		
FPTDERSWVYSPLHYS Y10A (FPTDERSWVASPLHYS)	0.0258		
FPTDERSWVYSPLHYS Y10D (FPTDERSWVDSPLHYS)	0.0443		
FPTDERSWVYSPLHYS Y10E (FPTDERSWVESPLHYS)	0.001155		
FPTDERSWVYSPLHYS Y10F (FPTDERSWVFSPLHYS)	0.05635		
FPTDERSWVYSPLHYS Y10G (FPTDERSWVGSPLHYS)	0.00629		
FPTDERSWVYSPLHYS Y10H (FPTDERSWVHSPLHYS)	0.005897		
FPTDERSWVYSPLHYS Y10I (FPTDERSWVISPLHYS)	0.04645		
FPTDERSWVYSPLHYS Y10K (FPTDERSWVKSPLHYS)	0.09285		
FPTDERSWVYSPLHYS Y10L (FPTDERSWVLSPLHYS)	0.0305		
FPTDERSWVYSPLHYS Y10M (FPTDERSWVMSPLHYS)	0.02723		
FPTDERSWVYSPLHYS Y10N (FPTDERSWVNSPLHYS)	0.01841		
FPTDERSWVYSPLHYS Y10P (FPTDERSWVPSPLHYS)	0.03355		
FPTDERSWVYSPLHYS Y10Q (FPTDERSWVQSPLHYS)	0.06416		
FPTDERSWVYSPLHYS Y10R (FPTDERSWVRSPLHYS)	0.07605		
FPTDERSWVYSPLHYS Y10S (FPTDERSWVSSPLHYS)	0.2908		
FPTDERSWVYSPLHYS Y10T (FPTDERSWVTSPLHYS)	0.09994		
FPTDERSWVYSPLHYS Y10V (FPTDERSWVVSPLHYS)	0.06161		
FPTDERSWVYSPLHYS Y10W (FPTDERSWVWSPLHYS)	0.007525		
FPTDERSWVYSPLHYS Y10Y	0.01108		
FPTDERSWVYSPLHYS Y15A (FPTDERSWVYSPLHAS)	0.07808		
FPTDERSWVYSPLHYS Y15D (FPTDERSWVYSPLHDS)	0.1507		

Substance	DMS-derived PSSM value of the single-substitution variant	NGS_counts log2_total	DMS-derived PSSM value, averaged over the two overlapping peptides
FPTDERSWVYSPLHYS Y15E (FPTDERSWVYSPLHES)	0.04133		
FPTDERSWVYSPLHYS Y15F (FPTDERSWVYSPLHFS)	0.1806		
FPTDERSWVYSPLHYS Y15G (FPTDERSWVYSPLHGS)	0.06795		
FPTDERSWVYSPLHYS Y15H (FPTDERSWVYSPLHHS)	0.06268		
FPTDERSWVYSPLHYS Y15I (FPTDERSWVYSPLHIS)	0.02212		
FPTDERSWVYSPLHYS Y15K (FPTDERSWVYSPLHKS)	0.1066		
FPTDERSWVYSPLHYS Y15L (FPTDERSWVYSPLHLS)	0.004513		
FPTDERSWVYSPLHYS Y15M (FPTDERSWVYSPLHMS)	0.01681		
FPTDERSWVYSPLHYS Y15N (FPTDERSWVYSPLHNS)	0.006192		
FPTDERSWVYSPLHYS Y15P (FPTDERSWVYSPLHPS)	0.01992		
FPTDERSWVYSPLHYS Y15Q (FPTDERSWVYSPLHQS)	0.01747		
FPTDERSWVYSPLHYS Y15R (FPTDERSWVYSPLHRS)	0.002018		
FPTDERSWVYSPLHYS Y15S (FPTDERSWVYSPLHSS)	0.04773		
FPTDERSWVYSPLHYS Y15T (FPTDERSWVYSPLHTS)	0.02913		
FPTDERSWVYSPLHYS Y15V (FPTDERSWVYSPLHVS)	0.02215		
FPTDERSWVYSPLHYS Y15W (FPTDERSWVYSPLHWS)	0.1085		
FPTDERSWVYSPLHYS Y15Y	0.01552		
LADLIATDSKLYIPLE (Ac-LADLIATDSKLYIPLE-NH2) [TPTE2_F97A]		1.58	
TDERSWVYSPLHYS(averaged) D2A (TAERSWVYSPLHYS)			0.1865
TDERSWVYSPLHYS(averaged) D2D			0.1107
TDERSWVYSPLHYS(averaged) D2E (TEERSWVYSPLHYS)			0.02561
TDERSWVYSPLHYS(averaged) D2F (TFERSWVYSPLHYS)			0.04563
TDERSWVYSPLHYS(averaged) D2G (TGERSWVYSPLHYS)			0.1597

Substance	DMS-derived PSSM value of the single-substitution variant	NGS_counts log2_total	DMS-derived PSSM value, averaged over the two overlapping peptides
TDERSWVYSPLHYS(averaged) D2H (THERSWVYSPLHYS)			0.07224
TDERSWVYSPLHYS(averaged) D2I (TIERSWVYSPLHYS)			0.0151
TDERSWVYSPLHYS(averaged) D2K (TKERSWVYSPLHYS)			0.001257
TDERSWVYSPLHYS(averaged) D2L (TLERSWVYSPLHYS)			0.07833
TDERSWVYSPLHYS(averaged) D2M (TMERSWVYSPLHYS)			0.01089
TDERSWVYSPLHYS(averaged) D2N (TNERSWVYSPLHYS)			0.01696
TDERSWVYSPLHYS(averaged) D2P (TPERSWVYSPLHYS)			0.02635
TDERSWVYSPLHYS(averaged) D2Q (TQERSWVYSPLHYS)			0.04535
TDERSWVYSPLHYS(averaged) D2R (TRERSWVYSPLHYS)			0.04457
TDERSWVYSPLHYS(averaged) D2S (TSERSWVYSPLHYS)			0.06786
TDERSWVYSPLHYS(averaged) D2T (TTERSWVYSPLHYS)			0.03
TDERSWVYSPLHYS(averaged) D2V (TVERSWVYSPLHYS)			0.02758
TDERSWVYSPLHYS(averaged) D2W (TWERSWVYSPLHYS)			0.02336
TDERSWVYSPLHYS(averaged) D2Y (TYERSWVYSPLHYS)			0.01192
TDERSWVYSPLHYS(averaged) E3A (TDARSWVYSPLHYS)			0.01393
TDERSWVYSPLHYS(averaged) E3D (TDDRSWVYSPLHYS)			0.007357
TDERSWVYSPLHYS(averaged) E3E			0.1077
TDERSWVYSPLHYS(averaged) E3F (TDFRSWVYSPLHYS)			0.06443
TDERSWVYSPLHYS(averaged) E3G (TDGRSWVYSPLHYS)			0.03744
TDERSWVYSPLHYS(averaged) E3H (TDHRSWVYSPLHYS)			0.03203
TDERSWVYSPLHYS(averaged) E3I (TDIRSWVYSPLHYS)			0.06072
TDERSWVYSPLHYS(averaged) E3K (TDKRSWVYSPLHYS)			0.02425
